The assay concerns loperamide-induced bead transit delay. The experiment in a line: Spastic constipation model (loperamide-induced colorectal bead transit delay test in mice). Format: in vivo, mouse (ddY, male). To be noted: 3 mg/kg oral, concurrently with loperamide 0.3 mg/kg s.c.; bead excretion time. The protocol:
A 3-mm diameter glass bead is deeply inserted at a depth of 2 cm into the anus of the mouse (ddY, male, 6 weeks old), and the time taken for excretion of the bead is measured. […] With improving effects on the loperamide-induced bead transit delay, a bowel movement-improving action of the test compound on spastic constipation was evaluated. The test compound was orally administered concurrently with administration of loperamide (30 minutes before the insertion of the bead). The assessment of the test compound was made from calculation of an improvement rate in the bead excretion time of the test compound-treated/loperamide-treated group, by taking the bead excretion time of the non-test compound treated/non-loperamide treated (vehicle-treated/vehicle-treated) group as 100%, and by taking the bead excretion time of the non-test compound treated/loperamide-treated (vehicle-treated/loperamide-treated) group as 0%.

Molecules are shown by their SMILES.

In turn, `O=C(CNCC1(O)CCCCC1)N1CCc2ccccc2[C@@H]1C1CCCCC1` [Example 568] had an Inhibition rate of 83%.

The values above are taken from patent publication US8263607B2, “1-substituted tetrahydroisoquinoline compound” (Astellas Pharma Inc., priority 2007, dated 2012).
